Common to all, as to format: biochemical
Assay [1] deals with Thymidylate synthase (Toxoplasma gondii, UniProt Q07422). Briefly: Thymidylate synthase inhibition, Toxo. Particulars: Toxo TS.
For assay [2], the target named is PDGFR-β kinase (Homo sapiens (Human), UniProt P09619). Briefly: PDGFR-β kinase inhibition.
The target in assay [3] is Thymidylate synthase (Escherichia coli (strain K12), UniProt P0A884). Kind of assay: Thymidylate synthase inhibition, E. coli. To be noted: E. coli TS.

Protein sequences, listed by entry. Tags and fused reporters are not part of them. Lines headed by an entry give the natural chain unless they say otherwise; changes in a name come on top. Residues count along the entry.
UniProt P09619, 33-1106: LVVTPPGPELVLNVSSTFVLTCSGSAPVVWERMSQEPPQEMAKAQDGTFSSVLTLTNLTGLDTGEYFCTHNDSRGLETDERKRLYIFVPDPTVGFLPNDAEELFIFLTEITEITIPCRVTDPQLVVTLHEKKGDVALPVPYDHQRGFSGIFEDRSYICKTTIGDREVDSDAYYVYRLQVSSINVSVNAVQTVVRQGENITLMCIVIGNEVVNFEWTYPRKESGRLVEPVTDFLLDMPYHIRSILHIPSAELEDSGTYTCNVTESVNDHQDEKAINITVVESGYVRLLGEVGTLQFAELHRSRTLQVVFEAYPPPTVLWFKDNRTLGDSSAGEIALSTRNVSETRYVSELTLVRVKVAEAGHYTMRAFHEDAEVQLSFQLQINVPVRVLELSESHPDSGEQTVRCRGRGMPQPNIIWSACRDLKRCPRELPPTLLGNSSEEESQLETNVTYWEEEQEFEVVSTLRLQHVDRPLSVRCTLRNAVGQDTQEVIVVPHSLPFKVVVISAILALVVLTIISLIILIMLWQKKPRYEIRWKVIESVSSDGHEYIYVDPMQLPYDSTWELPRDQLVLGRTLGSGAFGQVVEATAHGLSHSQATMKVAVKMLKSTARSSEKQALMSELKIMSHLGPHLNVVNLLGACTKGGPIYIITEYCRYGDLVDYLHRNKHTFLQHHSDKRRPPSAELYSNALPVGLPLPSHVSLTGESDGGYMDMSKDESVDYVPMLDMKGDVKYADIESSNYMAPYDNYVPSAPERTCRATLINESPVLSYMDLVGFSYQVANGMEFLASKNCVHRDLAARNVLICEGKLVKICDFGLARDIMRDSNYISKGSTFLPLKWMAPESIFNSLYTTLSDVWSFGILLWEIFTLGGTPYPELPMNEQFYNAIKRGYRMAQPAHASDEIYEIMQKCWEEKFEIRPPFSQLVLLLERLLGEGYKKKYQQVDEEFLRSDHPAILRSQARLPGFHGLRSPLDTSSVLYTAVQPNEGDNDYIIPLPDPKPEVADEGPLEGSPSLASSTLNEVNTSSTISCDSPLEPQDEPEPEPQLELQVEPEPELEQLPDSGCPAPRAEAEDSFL
UniProt P0A884: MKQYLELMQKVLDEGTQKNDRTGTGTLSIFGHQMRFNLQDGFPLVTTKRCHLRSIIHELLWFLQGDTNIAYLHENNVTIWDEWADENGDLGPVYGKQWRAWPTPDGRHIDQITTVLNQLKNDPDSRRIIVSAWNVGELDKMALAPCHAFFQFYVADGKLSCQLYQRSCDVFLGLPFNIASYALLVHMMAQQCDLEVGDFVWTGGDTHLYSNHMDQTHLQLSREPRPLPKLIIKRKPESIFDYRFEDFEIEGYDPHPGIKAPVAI

The record followed here is patent US9422297B2, “Tricyclic compounds having cytostatic and/or cytotoxic activity and methods of use thereof” (Duquesne University of the Holy Ghost, priority 2007, dated 2016).

Where two headings read alike, the source gives them in different places.

Compound `Nc1nc2[nH]cc(CCc3ccc(C(=O)N[C@@H](CCC(=O)O)C(=O)O)cc3)c2c(=O)[nH]1` [Pemetrexed] had an IC50 in assay [1] of 14 µM.

As for `CN(C)c1ccc(/C=C2/C(=O)Nc3ccccc32)cc1` [DMBI, reference compound], the IC50 in assay [2] (Table 1, read-out: PDGFR-β kinase inhibition) came to 3.75 µM; in assay [2] (Table 3, read-out: PDGFR-β kinase), 3.75 µM; in assay [2] (Table 5, quantity and unit inferred, read-out: PDGFR-β kinase), 3.75 µM.

Consider `Cc1nc2ccc(CN(C)c3ccc(C(=O)N[C@@H](CCC(=O)O)C(=O)O)s3)cc2c(=O)[nH]1` [Raltitrexed], for which the figures for the IC50 in assay [3] and in assay [1] were 2300 nM and 0.48 µM, respectively.
